Data reported in patent US5892018A, “DNA sequences encoding a brain sodium channel protein” (priority 1997, dated 1999).

Target: T1, BNC1 (Homo sapiens, UniProt Q16515)
T1 construct: a 1539-bp open reading frame extending to the 3' stop codon; expressed in transfected cells; host or cells: Xenopus laevis oocytes, nuclear injection of BNC1 cDNA in pMT3
T1 sequence (Q16515 1-512 T495A): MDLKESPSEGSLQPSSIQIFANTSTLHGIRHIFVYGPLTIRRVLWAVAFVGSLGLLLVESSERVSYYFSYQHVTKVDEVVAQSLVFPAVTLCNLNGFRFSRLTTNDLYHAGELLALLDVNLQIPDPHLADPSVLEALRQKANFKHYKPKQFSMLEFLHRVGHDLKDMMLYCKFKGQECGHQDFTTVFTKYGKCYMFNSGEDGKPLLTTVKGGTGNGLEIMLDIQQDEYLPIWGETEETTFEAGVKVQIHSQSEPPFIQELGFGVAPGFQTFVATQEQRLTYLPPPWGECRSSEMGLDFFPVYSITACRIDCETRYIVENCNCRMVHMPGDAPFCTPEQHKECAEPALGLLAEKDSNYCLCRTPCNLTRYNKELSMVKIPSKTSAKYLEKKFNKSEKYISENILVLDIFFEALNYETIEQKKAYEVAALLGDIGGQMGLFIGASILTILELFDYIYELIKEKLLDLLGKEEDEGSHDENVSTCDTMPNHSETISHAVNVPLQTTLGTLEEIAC
Assay: Two-electrode voltage clamp of Xenopus oocytes expressing BNC1
Type: cell-based
Conditions: BNC1 in Xenopus oocytes; peptide added to bathing solution at 1-30 μM
Procedure: Expression of BNC1 in Xenopus laevis Oocytes--BNC1 was expressed in Xenopus oocytes by nuclear injection of BNC1 cDNA cloned into pMT3 (0.2-0.3 ng). Control oocytes were injected with H2 O. α-, β-, and γhENaC (αβγhENaC) were expressed as described previously. Oocytes were maintained at 18° C. in modified Barth's solution, and current was measured by two-electrode voltage clamp 1 day after injection. During voltage clamp, oocytes were bathed in 116 mM NaCl, 2 mM KCl, 0.4 mM CaCl2, 1 mM Mg Cl2, 5 mM Hepes (pH 7.4 with NaOH). To determine ionic selectivity, NaCl was replaced with LiCl or KCl. Current-voltage relationships were determined by stepping from a holding potential of -60 mV to potentials between -100 and +40 mV for 1 second. Amiloride-sensitive current was obtained by subtracting current during exposure to a maximal concentration of amiloride (100 μM) from current prior to amiloride addition. Phe-Met-Arg-Phe-NH2 (FMRF-am-ide), Phe-Leu-Phe-Gln-Pro-Gln-Arg-Phe-NH2 (F-8-F-amide), and Ala-Gly-Glu-Gly-Leu-Ser-Ser-Pro-Phe-Trp-Ser-Leu-Ala-Ala-Pro-Gln-Arg-Phe-NH2 (A-18-F-amide) were obtained from Sigma and were added to the bathing solution at 1-30 μM.

activation of BNC1 current by agonist peptide: not activated
Structure (SMILES): CSCC[C@H](NC(=O)[C@@H](N)Cc1ccccc1)C(=O)N[C@@H](CCCNC(=N)N)C(=O)N[C@@H](Cc1ccccc1)C(N)=O [FMRF-amide, Phe-Met-Arg-Phe-NH2]
